Laboratory results as given in patent US7250397B2, “Antiarrhythmic peptides” (Zealand Pharma A/S, priority 2000, dated 2007).

Legend:
[1] = system: phospho-inositol turnover in neonatal rat cardiomyocytes; experiment: Phosphoinositol turnover in rat primary cardiomyocytes; type: cell-based; conditions: 100 nM + noradrenaline 300 nM; anoxia and glucose deprivation
Experimental: Neonatal Wistar rats (1-2 days old) are used. Hank's calcium- and magnesium-free balanced salt solution, buffered with 10 mM HEPES is used for washing during cell separation procedures. The hearts are excised, the ventricles isolated and the tissue cut into small pieces. The myocardial cells are isolated by stepwise enzymatic degradation with collagenase 0.05%, as described by^[35]. After repeated rounds of centrifugation and washing, the precipitated cells are resuspended in culture medium M199 with Earle's salt, 10% NCS, penicillin (75 U/mL), and streptomycin (75 U/mL) and pre-plated in a Petri dish for 90 minutes. The non-adherent cells are collected in the culture medium and plated in multidishes at 2.5*10^5 cells/well. The cultures are kept in a water-saturated CO2-incubator at 37° C. The cardiomyocyte cultures are used for analyses after 6-7 days.
Cardiomyocyte cultures are incubated for 48 hours in culture medium containing […] myo-[2-^3H]inositol to label the inositol phospholipids. On the day of analysis the medium is replaced by a buffer solution containing lithium and incubated at 37° C., as described by Meier et al.^[36]. […] The [^3H]inositol mono-phosphates are eluted and radioactivity in the fraction measured by liquid scintillation counting. […]

[2] = system: alkaline phosphatase (ALP) activity of human osteoblasts; experiment: Alkaline phosphatase (ALP) assay in human osteoblasts; type: cell-based; conditions: 5% O2, four days; 10^−11 to 10^−8 mol/l
Experimental: Human osteblast cells (hOB): Cells were isolated from human bone marrow obtained by puncture of the posterior iliac spine of healthy volunteers (aged 20-36): 10-15 ml marrow material was collected in 15 ml PBS+Ca,Mg (Life Technologies, Cat.No. 14040) with 100 U/ml Heparin (Sigma, Cat.No. H-3149). The mononuclear fraction of the marrow was isolated on a Lymphoprep gradient (Nycomed Pharma, Cat.No. 1001967), by centrifugation at 2200 rpm for 30 min. After harvesting, the mononuclear fraction was washed once with culture medium and centrifuged at 1800 rpm for 10 min. Subsequently cells were counted and plated in culture medium at 8×10^6 cells/100 mm dish. hOB medium (all reagents obtained from Life Technologies): MEM w/o Phenol Red w/Glutamax (Cat.No. 041-93013) supplemented with 10% heat inactivated fetal calf serum (Cat.No. 10106) and 0.1% Penicillin/Streptomycin (Cat.No. 15140). […]
• Day 1: Cells were plated in 96-well plates at a conc. of 8000 cells/well (hOB) or 3000 cells/well (ROS) in 200 μl normal culture medium. • Day 2: Medium was changed on the cells. • Day 4: (Day 3 for ROS): Cells were washed with 200 μl MEM, 0.1% BSA (Sigma, Cat.No. A-9418). […] Absorbance was measured using a plate reader at 405 nm. […]
Finally, to assess the effect of Compound 2 on bone formation and osteoblast activity, we measured the effect of the compound on the alkaline phosphatase (ALP) activity of the cells. […]

With “Ac-D-Tyr-D-Pro-D-4Hyp-Gly-D-Ala-Gly-NH2 [Compound 2]” the “increase in phospho-inositol turnover relative to the increase by noradrenaline alone” value [1] was “about 70%” and the “stimulation of ALP activity during hypoxia relative to normoxia” value [2] was “about 15%”.
